{"sequences": {"note": "The chains behind the UniProt entries cited, without tags or fusion partners.", "UniProt P28223, whole entry": "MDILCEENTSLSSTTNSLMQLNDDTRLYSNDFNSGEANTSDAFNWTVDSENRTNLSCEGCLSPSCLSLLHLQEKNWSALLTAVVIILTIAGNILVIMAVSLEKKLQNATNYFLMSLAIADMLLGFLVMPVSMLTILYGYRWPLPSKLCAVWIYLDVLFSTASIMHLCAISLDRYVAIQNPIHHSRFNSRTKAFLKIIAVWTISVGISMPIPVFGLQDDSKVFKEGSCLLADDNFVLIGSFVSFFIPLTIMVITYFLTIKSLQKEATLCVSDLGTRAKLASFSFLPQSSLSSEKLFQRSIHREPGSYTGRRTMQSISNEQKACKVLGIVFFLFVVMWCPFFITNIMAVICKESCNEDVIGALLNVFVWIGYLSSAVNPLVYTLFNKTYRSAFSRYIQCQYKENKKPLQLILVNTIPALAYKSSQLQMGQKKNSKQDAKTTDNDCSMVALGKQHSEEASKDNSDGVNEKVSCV"}, "source": "paper PMC10799935", "about": "“Discovery of a peripheral 5HT2A antagonist as a clinical candidate for metabolic dysfunction-associated steatohepatitis” (Nature Communications, 2024)", "target": "5HT2A (Homo sapiens, UniProt P28223)", "experiment": "Human 5HT2A inhibition assay (FLIPR calcium 6, 5HT stimulus, stably transfected HEK293 cells)", "assay_type": "cell-based"}
{"compound": "Cc1ccc2c(c1)CCc1cccnc1C2=C1CCN(CCc2c(C)nc3n(c2=O)CCCC3O)CC1", "note": "(centres unmarked)", "values": [{"measurement": "IC50", "result": 67.7, "unit": "nM"}, {"measurement": "IC50 (nM)", "result": "less potency than compound 11c"}]}
